The numbers were not newly measured in paper PMC5997768 (2018), which cites them from elsewhere.

For this data set the following is noted: experimentally determined; cited from earlier work.

For the substance Meperedine, the pKa – broadly, the pH at which an ionisable group is half protonated – is 8.59.
